pIC50: −log10 of the molar value.
How the values were obtained:
[1] = target: HiBiT-BRM fusion protein in stable HeLa cell line (Homo sapiens, UniProt P51531); assay: HiBiT-BRM cell-based degradation assay (Nano-Glo HiBiT Lytic Detection, 24 h); conditions: for BRM HiBit Degradation Maximum (%): HeLa HiBiT-BRM cells, top dose 30 μM; for pIC50: read-out: BRM HiBit Degradation IC50, HeLa HiBiT-BRM cells
Protocol: Procedure: A stable HeLa cell line expressing HiBiT-BRM was generated. On day 0, 5000 cells were seeded in 40 μL of media into each well of 384-well cell culture plates. On day 1, cells were treated with 120 nL DMSO or 120 nL of 3-fold serially DMSO-diluted compounds (10 points in duplicate with 30 μM as final top dose). Subsequently plates were incubated for 24 h in a standard tissue culture incubator and equilibrated at room temperature for 15 minutes. Nano-Glo HiBiT Lytic Detection System (Promega N3050) reagent was freshly prepared and 20 ul was added to each well. Upon addition of this LgBit-containing reagent, the HiBiT and LgBiT proteins associate to form the luminescent NanoBiT luciferase. The plates were shaken for 10 minutes at room temperature and the bioluminescence read using an EnVision plate reader (PerkinElmer).
The degradation % was calculated using the following formula: % degradation=100%−100%×(Lumsample−LumLC)/(LumHC−LumLC). DMSO treated cells are employed as High Control (HC) and 2 μM of a known BRM/BRG1 degrader standard treated cells are employed as Low Control (LC).

Chains of the proteins cited; added tags and fusions are not shown.
UniProt P51531, whole entry: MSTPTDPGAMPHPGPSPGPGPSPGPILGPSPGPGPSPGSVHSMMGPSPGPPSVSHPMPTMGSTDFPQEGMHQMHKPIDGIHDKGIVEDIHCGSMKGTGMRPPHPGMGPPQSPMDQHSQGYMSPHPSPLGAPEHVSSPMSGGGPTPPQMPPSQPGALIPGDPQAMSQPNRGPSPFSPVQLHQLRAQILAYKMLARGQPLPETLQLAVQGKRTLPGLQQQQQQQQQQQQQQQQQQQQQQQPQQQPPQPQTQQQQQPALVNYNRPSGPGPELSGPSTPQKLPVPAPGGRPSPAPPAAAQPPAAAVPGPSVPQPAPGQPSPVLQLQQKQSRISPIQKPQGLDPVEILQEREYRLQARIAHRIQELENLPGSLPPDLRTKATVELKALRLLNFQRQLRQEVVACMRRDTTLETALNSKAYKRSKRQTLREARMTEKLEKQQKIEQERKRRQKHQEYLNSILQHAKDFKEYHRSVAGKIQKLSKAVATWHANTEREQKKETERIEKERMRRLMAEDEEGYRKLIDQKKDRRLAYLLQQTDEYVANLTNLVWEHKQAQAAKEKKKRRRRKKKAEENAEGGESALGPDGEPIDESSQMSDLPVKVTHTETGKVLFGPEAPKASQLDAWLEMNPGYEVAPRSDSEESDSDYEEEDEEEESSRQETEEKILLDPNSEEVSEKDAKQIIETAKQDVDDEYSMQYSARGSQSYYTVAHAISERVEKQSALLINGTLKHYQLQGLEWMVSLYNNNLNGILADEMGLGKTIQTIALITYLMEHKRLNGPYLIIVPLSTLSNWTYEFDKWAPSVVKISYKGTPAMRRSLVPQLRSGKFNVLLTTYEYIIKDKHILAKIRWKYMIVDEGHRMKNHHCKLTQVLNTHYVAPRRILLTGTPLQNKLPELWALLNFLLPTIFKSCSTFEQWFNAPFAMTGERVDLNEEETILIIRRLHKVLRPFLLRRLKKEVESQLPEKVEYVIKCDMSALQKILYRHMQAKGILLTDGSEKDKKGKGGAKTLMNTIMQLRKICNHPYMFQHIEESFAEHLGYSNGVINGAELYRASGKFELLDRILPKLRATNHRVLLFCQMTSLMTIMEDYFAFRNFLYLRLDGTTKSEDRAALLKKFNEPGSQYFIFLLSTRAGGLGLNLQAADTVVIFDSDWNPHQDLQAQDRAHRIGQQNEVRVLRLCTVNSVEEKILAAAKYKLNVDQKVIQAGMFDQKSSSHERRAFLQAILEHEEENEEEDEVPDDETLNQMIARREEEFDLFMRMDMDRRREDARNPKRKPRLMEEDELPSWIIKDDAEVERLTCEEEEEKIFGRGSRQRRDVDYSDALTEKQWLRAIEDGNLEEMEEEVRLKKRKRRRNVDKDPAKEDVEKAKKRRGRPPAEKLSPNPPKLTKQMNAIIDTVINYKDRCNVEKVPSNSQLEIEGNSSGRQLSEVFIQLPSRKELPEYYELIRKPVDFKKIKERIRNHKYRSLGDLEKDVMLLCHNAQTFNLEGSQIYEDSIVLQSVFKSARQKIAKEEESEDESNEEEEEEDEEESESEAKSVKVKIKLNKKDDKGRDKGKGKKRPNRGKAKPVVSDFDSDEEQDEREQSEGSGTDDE
UniProt P51532, whole entry: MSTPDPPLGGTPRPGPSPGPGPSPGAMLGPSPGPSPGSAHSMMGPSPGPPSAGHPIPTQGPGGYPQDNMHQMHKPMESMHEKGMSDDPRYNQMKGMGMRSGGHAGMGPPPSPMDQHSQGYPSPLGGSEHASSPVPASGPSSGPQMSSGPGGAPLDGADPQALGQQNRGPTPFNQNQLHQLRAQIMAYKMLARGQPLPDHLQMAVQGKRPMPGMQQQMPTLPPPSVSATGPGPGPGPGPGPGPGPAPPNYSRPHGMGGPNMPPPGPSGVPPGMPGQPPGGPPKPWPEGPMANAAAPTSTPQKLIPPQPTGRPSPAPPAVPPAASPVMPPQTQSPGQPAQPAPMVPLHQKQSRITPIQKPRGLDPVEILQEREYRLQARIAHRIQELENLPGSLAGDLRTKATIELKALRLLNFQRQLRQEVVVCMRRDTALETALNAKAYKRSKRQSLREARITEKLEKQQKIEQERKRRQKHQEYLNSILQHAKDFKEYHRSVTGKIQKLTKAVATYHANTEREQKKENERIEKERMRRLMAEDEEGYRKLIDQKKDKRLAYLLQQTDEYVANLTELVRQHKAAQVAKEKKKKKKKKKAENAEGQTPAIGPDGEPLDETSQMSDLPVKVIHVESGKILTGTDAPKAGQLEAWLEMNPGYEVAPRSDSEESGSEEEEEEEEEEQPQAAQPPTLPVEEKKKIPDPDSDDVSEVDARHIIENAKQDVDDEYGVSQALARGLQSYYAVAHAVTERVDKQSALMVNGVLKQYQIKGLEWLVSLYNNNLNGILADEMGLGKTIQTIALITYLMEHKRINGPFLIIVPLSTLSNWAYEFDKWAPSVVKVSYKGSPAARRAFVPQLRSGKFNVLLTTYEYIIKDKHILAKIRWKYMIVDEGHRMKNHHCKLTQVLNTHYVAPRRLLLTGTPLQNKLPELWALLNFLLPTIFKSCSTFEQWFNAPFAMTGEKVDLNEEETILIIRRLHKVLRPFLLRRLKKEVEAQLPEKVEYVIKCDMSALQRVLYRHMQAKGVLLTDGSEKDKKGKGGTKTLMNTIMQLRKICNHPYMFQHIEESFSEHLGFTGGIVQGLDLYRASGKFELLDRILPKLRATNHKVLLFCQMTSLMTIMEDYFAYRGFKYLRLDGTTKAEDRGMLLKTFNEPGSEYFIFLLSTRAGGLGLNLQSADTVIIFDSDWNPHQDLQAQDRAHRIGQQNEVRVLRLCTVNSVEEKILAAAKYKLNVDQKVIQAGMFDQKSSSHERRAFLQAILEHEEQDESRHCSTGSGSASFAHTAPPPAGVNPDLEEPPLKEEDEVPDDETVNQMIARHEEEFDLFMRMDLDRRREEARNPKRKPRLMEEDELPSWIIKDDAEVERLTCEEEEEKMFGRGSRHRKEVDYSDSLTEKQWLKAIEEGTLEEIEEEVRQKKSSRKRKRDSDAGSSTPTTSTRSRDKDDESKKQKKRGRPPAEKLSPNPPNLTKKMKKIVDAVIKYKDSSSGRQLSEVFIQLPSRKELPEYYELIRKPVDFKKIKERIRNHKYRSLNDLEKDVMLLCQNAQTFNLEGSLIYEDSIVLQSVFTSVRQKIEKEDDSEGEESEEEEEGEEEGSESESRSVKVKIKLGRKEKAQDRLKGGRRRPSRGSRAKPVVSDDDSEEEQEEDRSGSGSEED

[2] = target: HiBit-BRG1 fusion protein in stable HeLa cell line expressing HiBit-BRG1 and LgBit (Homo sapiens, UniProt P51532); assay: HiBiT-BRG1 cell-based degradation assay (Nano-Glo HiBiT, 24 h); conditions: for BRG1 HiBit Degradation Maximum (%): HeLa HiBit-BRG1/LgBit cells, top dose 30 μM; for pIC50: read-out: BRMG1 HiBit Degradation IC50, HeLa HiBit-BRG1/LgBit cells

| Structure (SMILES) | BRM HiBit Degradation Maximum (%) [1] | pIC50 [1] | BRG1 HiBit Degradation Maximum (%) [2] | pIC50 [2] |
| --- | --- | --- | --- | --- |
| Cc1ncsc1-c1ccc(CNC(=O)[C@@H]2C[C@@H](O)CN2C(=O)[C@@H](c2cc(-c3ccc4nnc(-c5ccccc5O)cc4c3)no2)C(C)C)cc1 | A (“A” indicates maximum degradation ≥75%) | > 8.00 | A (“A” indicates maximum degradation ≥75%) | > 8.00 |
| Cc1cc2nnc(-c3ccccc3O)cc2cc1-c1cn([C@H](C(=O)N2C[C@H](O)C[C@H]2C(=O)N[C@@H](C)c2ccc(-c3scnc3C)cc2)C(C)C)nn1 | A (“A” indicates maximum degradation ≥75%) | > 8.00 | A (“A” indicates maximum degradation ≥75%) | > 8.00 |
| Cc1ncsc1-c1ccc([C@H](C)NC(=O)[C@@H]2C[C@@H](O)CN2C(=O)[C@@H](c2cc(N3CCN([C@H]4CCN(Cc5ccc6cc(-c7ccccc7O)nnc6c5)CC4(F)F)CC3)no2)C(C)C)cc1 | A (“A” indicates maximum degradation ≥75%) | > 8.00 | C (“C” indicates maximum degradation <50%) | – |
| Cc1ncsc1-c1ccc([C@H](C)NC(=O)[C@@H]2C[C@@H](O)CN2C(=O)[C@@H](c2cc(N3CCN([C@@H]4CCN(Cc5ccc6cc(-c7ccccc7O)nnc6c5)CC4(F)F)CC3)no2)C(C)C)cc1 | A (“A” indicates maximum degradation ≥75%) | > 8.00 | C (“C” indicates maximum degradation <50%) | – |
